Data: patent US20100316573A1, “Organic Compounds” (priority 2006, published 2010)

Tests used:
[1] = tested on: TNF mRNA in tumor cell lines; test: TNF mRNA levels in a panel of tumor cell lines treated with Compound II (FIG. 1); assay type: cell-based; settings: sensitive cell lines (72 hour IC50<1 uM), 18 hrs, normalized to B-Actin mRNA
Excerpt: Biosystems TaqMan Universal PCR Master Mix.
Implicit in these findings is that TNF levels may be used to predict sensitivity to a Smac Mimetic compound and that assessment of rising TNF levels may have potential as a strategy for monitoring a therapeutic response.

[2] = tested on: TNFα mRNA in SKOV-3 cells; test: TNFα mRNA induction in SKOV-3 cells (FIG. 2), fold increase relative to untreated cells

**Q.** With “N-D-Cyclohexyl-2-(2-{2-[(4-fluorophenyl)-methyl-amino]-pyridin-4-yl}pyrrolidin-1-yl)-2-oxo-ethyl]-2-methylamino-propinamide [Compound II]” as the substance, how does the “response of TNF mRNA expression to treatment (in words)” value [1] read?
**A.** increasing expression of TNF mRNA

**Q.** And the “induction of TNFα mRNA (in words)” value [2]?
**A.** induce TNFα mRNA in SKOV-3 cells in a dose dependent manner
